Assay results as given in US20200283498A1, “T CELL RECEPTOR FUSIONS AND CONJUGATES AND METHODS OF USE THEREOF” (Altor Bioscience LLC, priority 2008, published 2020).

Experiments:
YAC-1 target cells = test: Lytic activity of stimulated nude mouse splenocytes (calcein release); type: cell-based; settings: four days in equivalent molar amounts; YAC-1 targets
[1] = system: p53+/HLA-A2.1+ MDA-MB-231 tumor cells; test: MDA-MB-231 xenograft tumor growth in nude mice; type: in vivo; settings: compared to PBS; 9 doses i.v.
CD45R+ cells in tumors = test: Immune cell infiltration into tumors (CD45R immunohistochemistry); type: in vivo, nude mice; settings: A375 (p53+/HLA.A2.1+) tumor sections
[2] = system: human NSCLC A549-A2 tumor cells; test: Adoptive transfer of preincubated NK cells in A549-A2 experimental metastasis model; type: in vivo, athymic nude mice; settings: CTX 200 mg/kg ip days 14, 21; NK cells preincubated with the protein iv days 16, 22 (CTX group: no NK cells)
[3] = system: human A375 cell line tumors; test: A375 primary tumor growth model in nude mice

In the case of “rhIL-2: recombinant human IL-2 (Proleukin) [reference compound]”, the “lytic activity of stimulated mouse splenocytes” value (YAC-1 target cells) is reported as “Equivalent levels of lytic activity”, the tumor growth [1] is reported as “no effect” and the “CD45R-positive cells in A375 tumors” value (CD45R+ cells in tumors) is reported as “only small CD45R+ cells were observed”. The Median survival [2] was 67.5 days, the “mice that developed tumors” value ([3]; 0.4 mg/kg i.v., 9 doses, tumors established three days) was “All of the mice” and the “tumor growth following two dosing cycles” value ([3]; 264scTCR/IL-2 0.5 mg/kg daily x4 per cycle, rhIL-2 0.4 mg/kg every 8 hrs for five days per cycle) was “inhibited tumor growth to a similar degree”. For the same substance, the “tumor increase during the course of treatment” value ([3]; tumors grown to 200 mm^3, 9 doses i.v.) was “over 4 fold”.
